Measured values as given in patent US8362267B2, “Benzophenone thiazole derivatives useful for inhibiting formation of microtubule and method for producing the same” (Chong Kun Dang Pharmaceutical Corp., priority 2008, dated 2013).
Read-outs that look alike come from different tables or passages of the source.

Experiments:
[1] = tested on: HCT-15 (human colorectal adenocarcinoma, CCL-225); type: in vivo; conditions: for Number of dead animals: HCT-15 xenograft, q4d x 4 (i.p.)
Method: (§1) BALB/c male nude mice (4 weeks) available from Central Lab Animal Inc. were used for human xenograft experiments. Sterile food and potable water were freely provided to the mice in an isolated sterile cage and the temperature of the cage was maintained at 23±0.5° C.
(§2) A human cancer model, CX-1 (human colon adenocarcinoma), for xenograft experiment was obtained from the German Cancer Research Center (DKFZ), and HCT-15 (human colorectal adenocarcinoma, CCL-225) and A549 (human lung carcinoma, CCL-185) were obtained from ATCC (American Type Culture Collection, Rockville, Md., USA). Human tumor cells, MKN45 (human gastric adenocarcinoma, #80103) and calu-6 (human lung carcinoma, #30056) were obtained from KCLB (Korean Cell Line. Bank).
(§3) CX-1 was incubated in a 95% air incubator (37° C., 5% CO2) using a DMEM (Dulbecco's Modified Eagle's Medium, Gibco) supplemented with 10% heat-inactivated fetal bovine serum (Gibco) and 1% Antibiotics-Antimycotics (Gibco). Other cell lines were incubated in a 95% air incubator (37° C., 5% CO2) using an RPM1640 (Gibco BRL) medium supplemented with 10% heat-inactivated fetal bovine serum (Gibco) and 1% Antibiotics-Antimycotics (Gibco).
(§4) In vivo human xenograft experiments were performed in accordance with the following procedure. In vitro proliferated human-derived cancer cell lines (CX-1, HCT-15, A549, MKN45, calu-6) were subcutaneously injected into the abdominal region of BALB/c nude mice and were thus proliferated in vivo. After 20 to 25 days, the mice were sacrificed by cervical spine dislocation, solid cancer cells proliferated in the mice were sterilely separated and fresh cancer cells from which connective or necrotic tissues or skin were removed were collected. The fragments of tumor were transplanted to the BALB/c nude mice.
The mice in which cancer cells were proliferated to a predetermined size were collected on the 15th to 30th day after human-derived cancer models were transplanted into the BALB/c nude mice and then used for the tests. For each experimental group, the drug was injected at a dose of 0.1 mL per 10 g of mouse in accordance with a dose schedule, when tumor cells were grown to a size of 100 to 200 mm^3 after tumor transplantation.
After administration, antitumor activity was evaluated based upon an antitumor inhibition rate (IR %) of tumor growth, obtained by comparing a tumor volume measured on the final day with a tumor volume of a control group. As the reference drug, AC7700 (Sanofi-Aventis), which is currently undergoing phase III clinical trials, was used. Tumor size=(short diameter)^2×(long diameter)/2 I.R.(%)=[1−(average tumor size of drug-administered group)/(average tumor size of control group)]×100

[2] = tested on: MKN45 (human gastric adenocarcinoma, #80103); assay: In vivo antitumor activity, human xenograft, stomach cancer model MKN45
Method: as §1, §2, §3
as §4, with “mice. […]” for “mice.”
(§5) After administration, antitumor activity was evaluated based upon an antitumor inhibition rate (IR %) of tumor growth, obtained by comparing a tumor volume measured on the final day with a tumor volume of a control group. […]

[3] = tested on: calu-6 (human lung carcinoma, #30056); assay: In vivo antitumor activity, human xenograft, non-small cell lung cancer model calu-6
Method: as §1, §2, §3
as §4, with “mice. […]” for “mice.”
as §5

[4] = male, BALB/c nude, mouse, in vivo, ip, 5 mg/kg

Structure (SMILES): COc1cc(C(=O)c2ccc(-c3csc(NC(=O)[C@@H](N)C(C)C)n3)cc2-n2cncn2)cc(OC)c1OC [Compound 624, (S)—N-(4-(3-(1H-1,2,4-triazol-1-yl)-4-(3,4,5-trimethoxybenzoyl)phenyl)thiazol-2-yl)-2-amino-3-methylbutanamide]
- pharmaceutical effects as compared with the reference drug ([1]; HCT-15 xenograft model, in words): significantly superior pharmaceutical effects
- Number of dead animals ([1]; 5 mg/kg): 0/6
- Number of dead animals ([1]; 7.5 mg/kg): 0/6
- Number of dead animals ([1]; 10 mg/kg): 0/6
- Number of dead animals ([2]; MKN45 xenograft, 7.5 mg/kg, q4d x 4 (i.p.)): 0/6
- Number of dead animals ([2]; MKN45 xenograft, 10 mg/kg, q4d x 4 (i.p.)): 0/6
- Number of dead animals [2, 4]: 0/6
- Number of dead animals ([3]; calu-6 xenograft, 7.5 mg/kg, q4d x 4 (i.p.)): 0/6
- Number of dead animals ([3]; calu-6 xenograft, 10 mg/kg, q4d x 4 (i.p.)): 0/6
- Number of dead animals [3, 4]: 0/6
